The text below walks through data of patent US7425339.

This experiment has as its target Tax HLA-A2/β2m complex, biotinylated (human). As to the kind of experiment: SPR (BIAcore 3000), equilibrium fit, biotinylated pMHC on streptavidin chip. For orientation: Surface plasmon resonance follows binding to a sensor surface in real time, without labels.

As to “soluble human CD8αα Gln2→Lys mutant, expressed from pEX106 (from UniProt P01732 1-122) (receptor)”, the dissociation constant (Kd) turned out to be 363 µM.

In turn, “soluble human CD8αα Leu97→Tyr mutant, expressed from pEX109 (from UniProt P01732 1-122) (receptor)” yielded a Kd of 630 µM.

What is called Kd is the constant that tells how readily two partners part at equilibrium. Low readings indicate a tighter complex, high ones a looser complex.
